In paper PMC12102759 (Protein Science : A Publication of the Protein Society, 2025):

Test system: AP2M1 MU
Assay type: binding, human

Substance	PSSM value of the substitution, averaged over the two overlapping peptides	PSSM value of the substitution (DMS by phage display)
VSDIDYVPLKSATA(averaged) V1M (MSDIDYVPLKSATA)	0.0001577	–
VSDIDYVPLKSATA(averaged) V7A (VSDIDYAPLKSATA)	0.004325	–
QVVSDIDYVPLKSATA V3Y (QVYSDIDYVPLKSATA)	–	0
QVVSDIDYVPLKSATA K12R (QVVSDIDYVPLRSATA)	–	0
QVVSDIDYVPLKSATA V2N (QNVSDIDYVPLKSATA)	–	0.001346
VSDIDYVPLKSATAIT Y6S (VSDIDSVPLKSATAIT)	–	0
VSDIDYVPLKSATAIT P8Y (VSDIDYVYLKSATAIT)	–	0
QVVSDIDYVPLKSATA L11H (QVVSDIDYVPHKSATA)	–	0
VSDIDYVPLKSATAIT A14D (VSDIDYVPLKSATDIT)	–	0.005792
VSDIDYVPLKSATA(averaged) K10D (VSDIDYVPLDSATA)	0.0007026	–
QVVSDIDYVPLKSATA Y8G (QVVSDIDGVPLKSATA)	–	0
VSDIDYVPLKSATA(averaged) Y6H (VSDIDHVPLKSATA)	0	–
VSDIDYVPLKSATAIT S11F (VSDIDYVPLKFATAIT)	–	0.00549
QVVSDIDYVPLKSATA S13R (QVVSDIDYVPLKRATA)	–	0
VSDIDYVPLKSATAIT K10E (VSDIDYVPLESATAIT)	–	0.5311
VSDIDYVPLKSATA(averaged) D5M (VSDIMYVPLKSATA)	0.1259	–
VSDIDYVPLKSATAIT K10Q (VSDIDYVPLQSATAIT)	–	0
VSDIDYVPLKSATAIT V7Q (VSDIDYQPLKSATAIT)	–	0.0002611
VSDIDYVPLKSATA(averaged) A12Q (VSDIDYVPLKSQTA)	0	–
VSDIDYVPLKSATA(averaged) S2M (VMDIDYVPLKSATA)	0.003516	–
VSDIDYVPLKSATA(averaged) S11H (VSDIDYVPLKHATA)	3.368e-5	–
VSDIDYVPLKSATAIT I4F (VSDFDYVPLKSATAIT)	–	0.0005985
VSDIDYVPLKSATAIT A12M (VSDIDYVPLKSMTAIT)	–	0.08073

Substance	PSSM value of the substitution, averaged over the two overlapping peptides	PSSM value of the substitution (DMS by phage display)
VSDIDYVPLKSATAIT V7D (VSDIDYDPLKSATAIT)	–	0
QVVSDIDYVPLKSATA Y8V (QVVSDIDVVPLKSATA)	–	0
QVVSDIDYVPLKSATA L11T (QVVSDIDYVPTKSATA)	–	0
VSDIDYVPLKSATAIT I15H (VSDIDYVPLKSATAHT)	–	0.009169
QVVSDIDYVPLKSATA Y8P (QVVSDIDPVPLKSATA)	–	0
QVVSDIDYVPLKSATA A14D (QVVSDIDYVPLKSDTA)	–	0.02736
VSDIDYVPLKSATA(averaged) Y6D (VSDIDDVPLKSATA)	0	–
QVVSDIDYVPLKSATA V2T (QTVSDIDYVPLKSATA)	–	0.001139
VSDIDYVPLKSATA(averaged) P8S (VSDIDYVSLKSATA)	0.01035	–
QVVSDIDYVPLKSATA D5Q (QVVSQIDYVPLKSATA)	–	0.002506
VSDIDYVPLKSATAIT I15A (VSDIDYVPLKSATAAT)	–	0.0402
VSDIDYVPLKSATA(averaged) P8G (VSDIDYVGLKSATA)	0	–
VSDIDYVPLKSATAIT D3R (VSRIDYVPLKSATAIT)	–	0
QVVSDIDYVPLKSATA L11W (QVVSDIDYVPWKSATA)	–	0
VSDIDYVPLKSATA(averaged) D5K (VSDIKYVPLKSATA)	0.02269	–
VSDIDYVPLKSATAIT V7M (VSDIDYMPLKSATAIT)	–	0.001261
VSDIDYVPLKSATA(averaged) S11W (VSDIDYVPLKWATA)	0.007112	–
VSDIDYVPLKSATA(averaged) Y6L (VSDIDLVPLKSATA)	0	–
VSDIDYVPLKSATAIT S2L (VLDIDYVPLKSATAIT)	–	0.004479
VSDIDYVPLKSATA(averaged) Y6R (VSDIDRVPLKSATA)	0	–
QVVSDIDYVPLKSATA Y8K (QVVSDIDKVPLKSATA)	–	0
QVVSDIDYVPLKSATA D5D	–	0.08019
VSDIDYVPLKSATA(averaged) I4G (VSDGDYVPLKSATA)	0	–

Substance	PSSM value of the substitution, averaged over the two overlapping peptides	PSSM value of the substitution (DMS by phage display)
QVVSDIDYVPLKSATA V3W (QVWSDIDYVPLKSATA)	–	0.003269
VSDIDYVPLKSATAIT S2K (VKDIDYVPLKSATAIT)	–	0.00599
VSDIDYVPLKSATAIT S2N (VNDIDYVPLKSATAIT)	–	0
VSDIDYVPLKSATA(averaged) T13I (VSDIDYVPLKSAIA)	0.00143	–
VSDIDYVPLKSATA(averaged) S11Y (VSDIDYVPLKYATA)	0.007115	–
VSDIDYVPLKSATA(averaged) V7I (VSDIDYIPLKSATA)	0.003008	–
VSDIDYVPLKSATA(averaged) A12D (VSDIDYVPLKSDTA)	0.0157	–
QVVSDIDYVPLKSATA A14F (QVVSDIDYVPLKSFTA)	–	0.0004615
VSDIDYVPLKSATAIT V1I (ISDIDYVPLKSATAIT)	–	0
VSDIDYVPLKSATAIT V7F (VSDIDYFPLKSATAIT)	–	0.7071
VSDIDYVPLKSATA(averaged) Y6Q (VSDIDQVPLKSATA)	0	–
VSDIDYVPLKSATA(averaged) K10K	0.001562	–
VSDIDYVPLKSATAIT I4P (VSDPDYVPLKSATAIT)	–	0
VSDIDYVPLKSATA(averaged) S2G (VGDIDYVPLKSATA)	0.1888	–
VSDIDYVPLKSATAIT K10I (VSDIDYVPLISATAIT)	–	0.0001199
VSDIDYVPLKSATAIT T13G (VSDIDYVPLKSAGAIT)	–	0.001097
VSDIDYVPLKSATAIT D5E (VSDIEYVPLKSATAIT)	–	0.3037
QVVSDIDYVPLKSATA S13T (QVVSDIDYVPLKTATA)	–	3.432e-5
VSDIDYVPLKSATAIT D5W (VSDIWYVPLKSATAIT)	–	0.0003786
VSDIDYVPLKSATAIT S11S	–	0.003106
VSDIDYVPLKSATA(averaged) A12N (VSDIDYVPLKSNTA)	0.1766	–
VSDIDYVPLKSATA(averaged) I4N (VSDNDYVPLKSATA)	5.668e-5	–
QVVSDIDYVPLKSATA Y8T (QVVSDIDTVPLKSATA)	–	0

Substance	PSSM value of the substitution, averaged over the two overlapping peptides	PSSM value of the substitution (DMS by phage display)
QVVSDIDYVPLKSATA K12E (QVVSDIDYVPLESATA)	–	0.0286
VSDIDYVPLKSATA(averaged) D3V (VSVIDYVPLKSATA)	0	–
VSDIDYVPLKSATAIT V1R (RSDIDYVPLKSATAIT)	–	0.8177
VSDIDYVPLKSATAIT L9T (VSDIDYVPTKSATAIT)	–	0
VSDIDYVPLKSATA(averaged) A12K (VSDIDYVPLKSKTA)	0	–
QVVSDIDYVPLKSATA V3L (QVLSDIDYVPLKSATA)	–	0
QVVSDIDYVPLKSATA V9S (QVVSDIDYSPLKSATA)	–	0
VSDIDYVPLKSATA(averaged) A12P (VSDIDYVPLKSPTA)	0.0004826	–
QVVSDIDYVPLKSATA P10Q (QVVSDIDYVQLKSATA)	–	0
VSDIDYVPLKSATA(averaged) V7L (VSDIDYLPLKSATA)	0.1296	–
QVVSDIDYVPLKSATA I6D (QVVSDDDYVPLKSATA)	–	0.0001203
VSDIDYVPLKSATAIT S11H (VSDIDYVPLKHATAIT)	–	0
VSDIDYVPLKSATA(averaged) V1A (ASDIDYVPLKSATA)	0	–
VSDIDYVPLKSATAIT A12Y (VSDIDYVPLKSYTAIT)	–	0
QVVSDIDYVPLKSATA S4G (QVVGDIDYVPLKSATA)	–	0.3772
QVVSDIDYVPLKSATA D7P (QVVSDIPYVPLKSATA)	–	0.0014
QVVSDIDYVPLKSATA S13L (QVVSDIDYVPLKLATA)	–	0.0009784
VSDIDYVPLKSATA(averaged) Y6V (VSDIDVVPLKSATA)	0	–
VSDIDYVPLKSATAIT S11W (VSDIDYVPLKWATAIT)	–	0.001786
VSDIDYVPLKSATAIT I4H (VSDHDYVPLKSATAIT)	–	0.0008136
VSDIDYVPLKSATAIT L9K (VSDIDYVPKKSATAIT)	–	0
VSDIDYVPLKSATA(averaged) T13Y (VSDIDYVPLKSAYA)	0.004843	–
